The experiment addresses Metabotropic glutamate receptor 5 (Rattus norvegicus, UniProt P31424). In words: Negative allosteric modulation at rat mGluR5 receptor.

The chains behind the UniProt entries cited, without tags or fusion partners.
UniProt P31424, whole entry: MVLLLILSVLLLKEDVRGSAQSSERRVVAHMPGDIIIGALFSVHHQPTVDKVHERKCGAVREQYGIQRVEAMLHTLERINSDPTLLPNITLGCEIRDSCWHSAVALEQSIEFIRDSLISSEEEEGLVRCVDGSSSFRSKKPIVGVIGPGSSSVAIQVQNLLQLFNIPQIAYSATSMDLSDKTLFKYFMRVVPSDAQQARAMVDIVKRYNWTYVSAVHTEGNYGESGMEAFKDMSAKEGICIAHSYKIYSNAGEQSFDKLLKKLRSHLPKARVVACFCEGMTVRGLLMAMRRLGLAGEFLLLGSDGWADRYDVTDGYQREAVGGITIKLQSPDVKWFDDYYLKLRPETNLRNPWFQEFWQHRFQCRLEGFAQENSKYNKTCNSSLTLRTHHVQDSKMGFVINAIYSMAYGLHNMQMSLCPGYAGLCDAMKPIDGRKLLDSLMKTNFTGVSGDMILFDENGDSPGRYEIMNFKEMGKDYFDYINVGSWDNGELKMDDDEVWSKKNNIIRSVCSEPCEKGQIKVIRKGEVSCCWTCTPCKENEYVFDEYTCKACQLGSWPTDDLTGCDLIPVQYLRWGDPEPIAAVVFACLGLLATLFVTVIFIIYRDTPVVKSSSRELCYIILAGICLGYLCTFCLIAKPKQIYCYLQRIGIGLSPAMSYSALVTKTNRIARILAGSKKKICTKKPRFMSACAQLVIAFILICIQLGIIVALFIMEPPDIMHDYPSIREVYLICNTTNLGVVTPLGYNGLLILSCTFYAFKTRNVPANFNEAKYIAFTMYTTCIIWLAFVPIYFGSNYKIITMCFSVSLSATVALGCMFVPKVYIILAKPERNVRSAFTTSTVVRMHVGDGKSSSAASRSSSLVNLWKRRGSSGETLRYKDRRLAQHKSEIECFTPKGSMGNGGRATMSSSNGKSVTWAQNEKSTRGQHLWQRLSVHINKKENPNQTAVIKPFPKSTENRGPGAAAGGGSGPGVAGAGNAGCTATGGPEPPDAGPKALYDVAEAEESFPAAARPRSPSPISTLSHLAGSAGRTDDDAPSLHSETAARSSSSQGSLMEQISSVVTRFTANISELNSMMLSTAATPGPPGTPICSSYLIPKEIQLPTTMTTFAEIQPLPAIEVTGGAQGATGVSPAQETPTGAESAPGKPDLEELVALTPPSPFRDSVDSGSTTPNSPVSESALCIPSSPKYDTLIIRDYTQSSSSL

SMILES strings stand for the structures.

Usually IC50 stands for the concentration needed to halve the response being measured. Read a high IC50 as weaker potency. What is called Ki is the equilibrium dissociation constant of an inhibitor or competing ligand from its target.

In turn, `O=C(N1CCN(c2nccs2)CC1)C12CC3CC(CC(C3)C1)C2` returned an IC50 of 540 nM and a Ki of 440 nM.

The record behind these values is ChEMBL document CHEMBL1687701, “Discovery of N-Aryl Piperazines as Selective mGlu(5) Potentiators with Efficacy in a Rodent Model Predictive of Anti-Psychotic Activity” (ACS Med Chem Lett, 2010).
